According to patent US8975259B2, “Compositions and methods for inhibiting G protein signaling” (University of Rochester, priority 2007, dated 2015):

Experiments:
[1] = tested on: human μ opioid receptor (hMOR-CHO cells); test: Total inositol phosphate assay in hMOR-CHO cells; settings: 10 μM; result in words
[2] = tested on: human κ opioid receptor (hKOR-CHO cells); test: Total inositol phosphate assay in hKOR-CHO cells; settings: 10 μM; result in words

**Q.** `CN(C(=O)Cc1ccc(Cl)c(Cl)c1)[C@@H]1CCCC[C@H]1N1CCCC1.CS(=O)(=O)O.O` (relative stereo) was tested. Which “effect of compound by itself on IP production” value [1] did it give?
**A.** The value was “no effect”.

**Q.** And the “effect on IP production over control treated cells” value [2]?
**A.** Its value is “no significant effect”.
